The target in assay [1] is T1, Peroxisome proliferator-activated receptor gamma (Homo sapiens, UniProt P37231). Description: Agonist response against human PPAR gamma in transactivation assay. It is filed as functional.
Assay [2] addresses T1, Peroxisome proliferator-activated receptor gamma. Description: In vitro binding affinity for human PPAR gamma.

Protein sequences, listed by entry. Tags and fused reporters are not part of them. Lines headed by an entry give the natural chain unless they say otherwise; changes in a name come on top.
UniProt P37231: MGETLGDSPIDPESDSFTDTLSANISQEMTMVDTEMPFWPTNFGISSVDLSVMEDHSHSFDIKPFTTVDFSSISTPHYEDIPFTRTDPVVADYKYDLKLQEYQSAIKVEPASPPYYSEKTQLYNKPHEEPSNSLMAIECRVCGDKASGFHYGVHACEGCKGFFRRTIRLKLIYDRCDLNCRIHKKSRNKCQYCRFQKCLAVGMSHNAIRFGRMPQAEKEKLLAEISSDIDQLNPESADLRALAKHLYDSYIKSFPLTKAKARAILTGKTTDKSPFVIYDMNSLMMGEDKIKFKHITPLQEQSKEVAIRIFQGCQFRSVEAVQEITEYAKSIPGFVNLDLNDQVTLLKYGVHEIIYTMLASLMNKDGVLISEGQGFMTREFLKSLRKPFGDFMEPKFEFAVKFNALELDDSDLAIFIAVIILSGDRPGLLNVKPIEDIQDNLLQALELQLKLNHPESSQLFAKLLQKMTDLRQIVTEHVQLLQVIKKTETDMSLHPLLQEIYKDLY

By EC50 is commonly meant the concentration needed to bring the measured effect to its halfway point. In general, IC50 refers to the concentration that inhibits the measured activity by half. Higher therefore signals weaker potency.

In turn, `CCCc1cc2c(oc(=O)n2C(C)C)c(CCC)c1O[C@H](C(=O)O)c1ccc(C(C)C)cc1` showed an EC50 in assay [1] of 140 nM. For the same compound, the IC50 in assay [2] is 51 nM.

The record behind these values is ChEMBL document CHEMBL1140307, “Design and synthesis of alpha-aryloxyphenylacetic acid derivatives: a novel class of PPARalpha/gamma dual agonists with potent antihyperglycemic and lipid modulating activity” (J Med Chem, 2005).
